# Measured values: PubChem BioAssay AID651710 (Broad Institute, 2012)
# By UniProt entry, the sequences of proteins in these tests, tags left out. Where a name states a change or a piece, a line headed by the entry shows the natural chain unless it says otherwise.
# UniProt P43351: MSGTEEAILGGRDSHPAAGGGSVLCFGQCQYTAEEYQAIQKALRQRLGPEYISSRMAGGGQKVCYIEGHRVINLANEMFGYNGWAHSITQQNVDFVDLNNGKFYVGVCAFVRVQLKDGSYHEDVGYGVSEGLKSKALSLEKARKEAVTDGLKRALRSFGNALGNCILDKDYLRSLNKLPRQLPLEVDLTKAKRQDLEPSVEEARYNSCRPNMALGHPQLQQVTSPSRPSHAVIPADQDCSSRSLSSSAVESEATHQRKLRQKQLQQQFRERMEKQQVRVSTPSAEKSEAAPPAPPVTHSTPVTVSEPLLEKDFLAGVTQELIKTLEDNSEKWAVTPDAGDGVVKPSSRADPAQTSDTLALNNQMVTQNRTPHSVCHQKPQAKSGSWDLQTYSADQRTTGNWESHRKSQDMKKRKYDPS
# The entries are a selection whose mix differs from that of the whole data set. Calls of active or inactive are those of the source.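 How the source made its calls: active means every replicate showing at least 50% inhibition; inconclusive means mean inhibition at least 50% but not in every replicate; inactive means the rest.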
# Molecular target: DNA repair protein RAD52 homolog (Homo sapiens) (UniProt P43351)
# Experiment: RAD52 DNA annealing inhibitors, primary screen, biochemical, FRET, single point, set 2 (AID 651710)
# Settings: recombinant RAD52 DNA annealing, FRET fluorescence; at 18.7 µM; hits give high values
row,Compound,inhibition
1,O=C(Nc1cc([As](=O)(O)O)ccc1O)c1ccccc1,inactive: 16.8%
2,O=P1(N(CCCl)CCCl)OCCCS1 (configuration not stated),inactive: -2.46%
3,O=C(O)CNc1ccc([As](=O)(O)O)cc1,inactive: 0.153%
4,COC(=O)C1(C)COP(=O)(Nc2ccccc2)OC1 (configuration not stated),inactive: -2.5%
5,O=[N+]([O-])c1cccc(NC2=NCC(CBr)S2)c1 (configuration not stated),inactive: -9.39%
6,O=[N+]([O-])c1ncn(CCn2ncnc2[N+](=O)[O-])n1,inactive: -8.76%
7,CC(C)(C)C(=O)NC(Sc1ccncn1)C(Cl)(Cl)Cl (configuration not stated),inactive: -1.02%
8,O=[N+]([O-])c1cc([N+](=O)[O-])c(CCNc2ccccc2)c([N+](=O)[O-])c1,inactive: -4.78%
9,Cc1ccc(NP(=O)(Oc2ccccc2)Oc2ccccc2)nc1,inactive: -11.4%
10,COc1ccc(C2=NCC(CBr)S2)cc1 (configuration not stated),inactive: 9.94%
11,c1cc(-c2nn[nH]n2)ccc1-c1nn[nH]n1,inactive: -13.5%
12,CC(C)c1nc(Nc2ccccc2)n(P(=O)(N(C)C)N(C)C)n1,inactive: 2.77%
13,CC(C)=N/N=C(\N)N[N+](=O)[O-],inactive: 1.01%
14,CCN(/C(=N/P(=O)(N1CCOCC1)N1CCOCC1)N1CCOCC1)c1ccc(OC)cc1,inactive: -2.27%
15,C[N+]1=C2C=CC=CC=C2SC12C([N+](=O)[O-])=CC([N+](=O)[O-])=C[C-]2[N+](=O)[O-] (configuration not stated),inactive: -15%
16,Nc1ccc([As](=O)(O)c2ccc(N)cc2)cc1,inactive: -10.5%
17,Clc1ccc(Cl)c(NC2=NCC(CBr)S2)c1 (configuration not stated),inactive: -16.2%
18,Cc1ccc(OP(=O)(Nc2nccs2)Oc2ccc(C)cc2)cc1,inactive: -12.4%
19,COc1ccccc1OP(=O)(Nc1ccc(C)cn1)Oc1ccccc1OC,inactive: -3.99%
20,Cc1ccc(N/C(=N/P(=O)(N2CCOCC2)N2CCOCC2)N2CCOCC2)cc1,inactive: -5.94%
21,CN(C(=O)Cc1ccc(Cl)c(Cl)c1)[C@H]1CCCC[C@H]1N1CCCC1,inactive: 8.65%
22,NC(=O)c1cc([N+](=O)[O-])cc([N+](=O)[O-])c1N,inactive: -32.2%
23,O=C(NC(Sc1ccncn1)C(Cl)(Cl)Cl)c1ccccc1 (configuration not stated),inactive: -4.89%
24,Nc1cc(N)c2nonc2c1[N+](=O)[O-],inactive: -30.7%
25,CC(C)CC(=O)NC(Sc1ccc(Cl)cc1)C(Cl)(Cl)Cl (configuration not stated),inactive: -6.42%
26,CCn1c(=O)n(C2CCN(CC3CCCCCCC3)C[C@H]2CO)c2ccccc21 (some centres not stated),inactive: 8.2%
27,Cc1ccc(NP(=O)(Oc2ccccc2F)Oc2ccccc2F)nc1,inactive: -7.37%
